According to patent publication US12552854B2, “Peptides that block presentation of antigenic islet peptides by HLA-DQ8 and methods for treating type-1 diabetes” (Icahn School of Medicine at Mount Sinai, priority 2019, dated 2026):

Test: Half-life and Intrinsic Clearance of RI-CT and RI-EXT (1 µM) after Incubation with Mouse Hepatocytes
Protocol: Table printed on a drawing sheet, FIG. 20
Title: Half-life and Intrinsic Clearance of RI-CT and RI-EXT (1 µM) after Incubation with Mouse Hepatocytes
First reader's note: The footnotes are printed inside the table frame as its last two rows; midazolam is a small-molecule positive control.

Midazolam*
CLint (mL/min/million cells): 0.010 mL/min/million cells
t1/2: 1.16 h
